The nature of this data set: Randomized cross-over study of nebulizers, peak sputum tobramycin. As to conditions: Pari LC; 60 mg/mL in 5 mL 1/4 NS.

Data on one molecule can be found in US6083922A (priority 1997, dated 2000).

For `NC[C@H]1O[C@H](O[C@H]2[C@H](O)[C@@H](O[C@H]3O[C@H](CO)[C@@H](O)[C@H](N)[C@H]3O)[C@H](N)C[C@@H]2N)[C@H](N)C[C@@H]1O` [tobramycin], the “patients with sputum concentrations larger or equal to 128 μg/g” value is reported as 87% and the “patients with sputum concentrations lower than 128 μg/g” value worked out at 13%.
